Screens deposited in PubChem BioAssay by National Center for Advancing Translational Sciences (NCATS).
12-LOX inh = ALOX12 (human) lipoxygenase inhibition; purified 12hLO, xylenol orange hydroperoxide absorbance; Potency, µM (titrated, usually from 108 µM), usual class: inhibitors; 1.1% of 580,000 active; AID 1671190
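Hydroperoxide product was detected by ferrous iron/xylenol orange as the 573 to 405 nm absorbance ratio. Arachidonic acid at 40 uM (final) was turned over for 30 min at room temperature by 150 nM human 12hLO, pH 7.0 Hepes buffer, after 15 min compound preincubation.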
Giardia killer = Giardia lamblia killing | Giardia lamblia trophozoite viability | activity change, % at 7.66 µM, hits read low | 0.15% of 340,000 active; in the data active means activity change below about -80%; inconclusive means between about -30% and that limit;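 further: parasites exposed to compound for two days anaerobically before the ATP read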
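Luminescence from cellular ATP indicates surviving trophozoites (100 cells/well) following 48 hrs anaerobic compound treatment at 37 deg C; signal develops 15-30 min at room temperature.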
PINK1 modulator = changes PINK1 expression | Potency, µM (highest dose often 76.6 µM), most hits filed as activators | 0.2% of 410,000 active | AID 624263 | PINK1 immunofluorescence, high-content cytometry, 24 h; active means well fitted activation curve with a large enough effect; inconclusive means small, poorly fitted or top-dose-only effect; cell line not stated here; further: nearly all actives have a fitted effect of over 65% in size
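Readout is PINK1 immunofluorescence, quantified alongside mitochondrial, cell and nuclear markers by laser-scanning microplate cytometry. Cells from a stable line were exposed to compound titrations (5 concentrations) for 24 hours, with CCCP controls.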
miR-21 FLuc = miR-21 reporter, rising signal | AID 2288 | HeLa miR-21 FLuc reporter, luciferase, 48 h | 340,000 tested, under 10 active | Potency, µM (titrated, usually from 38.3 µM); active = well fitted rising curve with a large enough effect; inconclusive = small, poorly fitted or top-dose-only effect; inactive = no such curve, though single readings can be large or run the other way;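 also: miR-21 action dims this reporter so a rising signal means less miR-21 action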
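Using DMEM plus 10% FBS, HeLa miR-21-FLuc cells are incubated with test compounds (final up to about 40uM) for 48 hours; firefly luciferase signal is then imaged following reagent-mediated lysis.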
ERG-DNA inh = blocks human ERG Ets domain binding to DNA. fluorescence polarization, His-ERG Ets domain / labelled DNA. Potency, µM (series often up to 76.9 µM), most hits filed as inhibitors. 0.028% of 370,000 active. AID 624246; active means well fitted inhibition curve with a large enough effect in the polarisation, with a control signal flat; inconclusive means small, poorly fitted or top-dose-only effect, or effect the other way, or a change in a side signal; inactive means no such curve, though single readings can be large or run the other way; the % refers to the polarisation;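 further: polarization taken with two DNA probes labelled with fluorescein and Texas red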
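His-tagged ERG Ets domain (1 uM in the protein solution; 300mM KCl, 50mM Tris-HCl, 1mM EDTA, 1mM DTT, pH 7.5) received compound, then a probe mix of 5 nM fluorescein-DNA and 100nM Texas-615-DNA. Fluorescence polarization was read for both dyes.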
PTHR1 ag = agonists of human PTHR1 parathyroid hormone receptor. HEK293 GP2 PTHR1 cells, GloSensor cAMP luminescence, 1 h. 0.075% of 410,000 active. Q03431. Potency, µM (titrated, usually from 115 µM), actives largely listed as activators. AID 743266; further: nearly all actives have a fitted effect of over 55% in size
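HEK-293-derived GP2 cells expressing PTHR1 and a GloSensor cAMP reporter, 3,000/well, plated overnight, given luciferin plus IBMX (each 0.5 mM as added) for 1 h at 37 °C, then compound for 1 h at 37 °C. Luminescence was read after 15 min at room temperature.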
Numbers stand for hits; i = inactive; ? = inconclusive; nt = no result. A selection: hits, their analogues and other compounds. The true share with any hit is near 1.3%. Unless noted, the call rests on the fitted dose curve; in most records, active means well fitted curve in the direction sought with a large enough effect; inconclusive means small, poorly fitted or top-dose-only effect, or another doubt; inactive means no such curve, though single readings can be large; an effect the other way counts as inactive or inconclusive.

SMILES	12-LOX inh	Giardia killer	PINK1 modulator	miR-21 FLuc	ERG-DNA inh	PTHR1 ag
O=C(NCCCn1ccnc1)c1ccc2ccccc2c1	i	i	i	i	i	i
CCOc1ccc(S(=O)(=O)NCc2ccccc2Cl)cc1C(N)=O	i	i	i	i	i	i
Cc1[nH]c(=S)c(C#N)c(C)c1C(=O)Nc1ccccc1	25.1µM	i	i	i	i	i
Cc1ccccc1NC(=O)c1c(C)[nH]c(=S)c(C#N)c1-c1ccco1	i	i	i	i	i	i
CCc1c(C(=O)Nc2ccccc2)c(C)[nH]c(=S)c1C#N	3.98µM	i	nt	i	nt	i
Cc1ccc2[nH]c(C)c([N+](=O)[O-])c2c1	i	nt	nt	nt	nt	nt
CC1(C)CC(=O)C2=C(C1)Nc1ccccc1S2	25.1µM	i	i	i	i	i
NN/C(=C\[N+](=O)[O-])Nc1ccccc1	i	i	i	i	i	i
NN/C(=C\[N+](=O)[O-])Nc1ccc(Cl)cc1	35.5µM	i	i	i	i	i
COC(=O)/C(=C\c1ccc([N+](=O)[O-])o1)NC(=O)c1ccccc1	?	?	i	i	i	i
CCCCNC(=O)/C(=C\c1ccc([N+](=O)[O-])o1)NC(=O)c1ccccc1	i	-101.1	i	i	i	i
CC1=CN2C(=N)/C(=C/c3ccc([N+](=O)[O-])o3)C(=O)N=C2S1	44.7µM	i	?	?	?	i
CC1=CN2C(=N)/C(=C/c3ccco3)C(=O)N=C2S1	i	i	i	i	i	i
CC(C)(C)OC(=O)NCCc1n[nH]c(=S)o1	?	i	i	i	i	i
CCOC(=O)c1sc(NC(=S)NC(=O)C2CC2)cc1C	i	i	?	i	i	i
CCOC(=O)c1sc(NC(=S)NC(=O)C23CC4CC(CC(C4)C2)C3)cc1C	35.5µM	i	i	i	i	i
CCOc1ccc(/C=C/C2=CC(C)(C)NC(=S)N2)cc1	39.8µM	i	i	i	i	i
CCn1cc(C(=O)NC2CCCCC2C)c(=O)c2ccc(C)nc21 (stereo not given)	15.8µM	i	i	i	i	i
CCc1nnc(N/N=C/c2c(C)[nH]c3ccccc23)n1N	31.6µM	i	i	i	i	i
C=CCNC(=S)N/N=C/c1ccccc1C(F)(F)F	i	nt	nt	nt	nt	nt
Cc1[nH]c2ccccc2c1/C=N/NC(=S)NCc1ccccc1	35.5µM	i	i	i	i	i
FC(F)(F)c1ccccc1/C=N/NC(=S)NCc1ccccc1	39.8µM	nt	nt	nt	nt	nt
Cc1ccc(Cn2cccc2/C=N/NC(=S)Nc2ccc(C)cc2)cc1	44.7µM	i	i	i	i	i
Cc1cc(=O)n(CC(=O)Nc2ccc(F)cc2)c(-c2ccc(F)cc2)n1	i	nt	nt	nt	nt	nt
COc1ccc(CNC(=O)COC(=O)C2CCN(S(=O)(=O)c3ccccc3C(F)(F)F)CC2)cc1	i	i	i	i	i	i
SMILES	12-LOX inh	Giardia killer	PINK1 modulator	miR-21 FLuc	ERG-DNA inh	PTHR1 ag
Cc1[nH]c2ccccc2c1/C=N/NC(N)=S	i	i	i	i	i	i
Cc1ccc(NC(=S)N/N=C/c2c(C)[nH]c3ccccc23)cc1	31.6µM	i	i	i	i	i
CC(C)CN(C(=O)CN1CCN(c2ccccc2O)CC1)c1c(N)n(CC(C)C)c(=O)[nH]c1=O	i	i	i	i	i	i
C[n+]1c(/C=C/c2ccc(F)cc2)ccc2ccccc21	nt	nt	i	nt	nt	nt
C[n+]1c(/C=C/c2ccc(O)cc2)ccc2ccccc21	35.5µM	i	i	i	i	i
Cc1cc(C)cc(NC(=O)Cc2csc(COc3cccc(C)c3)n2)c1	50.1µM	nt	i	i	i	i
O=C(Nc1ccccc1N1CCCC1)c1ccc(N2CCCC2=O)cc1	?	i	i	nt	i	i
C=C(CN(C)C)C(=O)c1ccc(OC2OC(COC(C)=O)C(OC(C)=O)C(OC(C)=O)C2OC(C)=O)cc1 (stereo not given)	?	i	i	nt	i	i
Cc1nn2c(c1-c1ccccc1-c1ccccc1)N(CCC(C)C)CCC2	39.8µM	nt	nt	nt	nt	nt
CCC(C(=O)Nc1ccc(C)cc1)c1ccccc1 (stereo not given)	i	i	i	i	i	i
CCC(C(=O)NCc1ccc(C)cc1)c1ccccc1 (stereo not given)	25.1µM	i	i	i	i	i
